Laboratory results: patent publication US9145415B2, “Nitrogen-containing heterocyclic compound or salt thereof” (FUJIFILM Corporation, priority 2012, dated 2015)

Protein sequences, listed by entry. Tags and fused reporters are not part of them. Residues count along the entry.
UniProt P36888, 564-993 limits assumed: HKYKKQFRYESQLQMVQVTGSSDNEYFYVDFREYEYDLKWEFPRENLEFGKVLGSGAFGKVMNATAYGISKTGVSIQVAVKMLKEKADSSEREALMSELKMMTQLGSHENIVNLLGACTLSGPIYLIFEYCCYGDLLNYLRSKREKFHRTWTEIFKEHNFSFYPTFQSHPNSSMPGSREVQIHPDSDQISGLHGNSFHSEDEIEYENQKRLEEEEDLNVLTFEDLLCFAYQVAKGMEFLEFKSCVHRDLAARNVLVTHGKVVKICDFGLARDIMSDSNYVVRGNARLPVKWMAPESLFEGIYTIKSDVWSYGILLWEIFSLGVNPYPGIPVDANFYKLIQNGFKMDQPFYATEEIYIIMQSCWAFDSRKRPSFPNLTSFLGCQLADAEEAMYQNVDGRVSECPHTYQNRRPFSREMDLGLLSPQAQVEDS

Columns and labels:
[1] = biological target: human FLT3 protein (FLT3 (WT)) (Homo sapiens, UniProt P36888); assay: FLT3 inhibition test (FLT3 enzyme inhibition, time-resolved fluorescence of substrate peptide phosphorylation); type: biochemical; settings: read-out: FLT3 (WT) enzyme inhibition activity
[2] = system: MV4-11 cells; assay: Leukemia cell proliferation inhibition test (ATPlite), MV4-11; settings: read-out: MV4-11 cell proliferation inhibition effect
[3] = system: Molm-13 cells; assay: Leukemia cell proliferation inhibition test (ATPlite), Molm-13; settings: read-out: MOLM13 cell proliferation inhibition effect

Measured: IC50

CCCNc1nc(Nc2ccnc(C)c2)ncc1C#CCCCNC(=O)[C@H](C)N(C)C(=O)/C=C/CN(C)C
< 10 nM: all assays above
